Shown are actives, neighbours in structure and some others; about 0.44% of the full set was active somewhere.
Rango dissoc inh = inhibition of RanGTP-driven Rango-importin beta dissociation. O95149+P62826. Biochemical FRET Rango-importin beta, RanGTP-induced dissociation. Potency, µM (doses to about 46.1 µM), for the others: at the highest dose activity change, negative = inhibition. 340,000 tested, 0.071% active; calls by dose curve; also: % of control where 0% means no effect; nearly all actives have a fitted effect of over 45% in size
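Recombinant Rango FRET biosensor (EYFP–snurportin 1 IBB–cerulean CFP10) at 0.1 uM premixed with 0.25 uM importin beta in PBS, 1 mM DTT, 0.02% Tween-20, 0.1% BSA. Compound added 5 min; RanGTP-RCC1 (0.6 uM Ran, 2 mM GTP, 0.2 uM RCC1) then triggers release, read at 45 min.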
KinaseGlo FLuc = Kinase-Glo luciferase inhibition (counter-screen); Kinase-Glo luciferase, ATP luminescence, 8 min; Potency, µM (top dose mostly 38.3 µM), inactives show at the highest dose activity change, negative = inhibition, actives largely listed as inhibitors; 200,000 tested, 0.28% active; also: % is scaled to controls: 0 for no effect and ±100 for the full control effect; nearly all actives have a fitted effect of over 60% in size
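Light output from Kinase-Glo luciferase with luciferin and 10 uM ATP in 50 mM imidazole pH 7.2, KCl, MgCl2, Tween 20, BSA; compound pin-delivered, 8-min ambient incubation, then luminescence read.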
Lamin A splicing = LMNA splicing modulation | HeLa LMNA splicing GFP/RFP minigene ratio, 48 h | 200,000 tested, 0.01% active | Potency, µM (series often up to 46.1 µM), inactives show at the highest dose ratio change, negative = inhibition, usual class: inhibitors; active = well fitted inhibition curve with a large enough effect in the signal ratio, with a control signal flat, not every such curve was filed as active; inconclusive = small, poorly fitted or top-dose-only effect, or effect the other way, or a change in a side signal; the % refers to the signal ratio; also: % is scaled to controls: 0 for no effect and ±100 for the full control effect
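S3 HeLa stable clones carrying a lamin A-EGFP splicing minigene plus DsRed2 were seeded at 600 cells/well in Opti-MEM with 2% FBS, pin-dosed and incubated 48 h at 37°C. Acumen cytometry (488 nm) gave the GFP/RFP total-intensity ratio.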
BCR signal inh = inhibitors of chronic active B-cell receptor signaling; ABC-DLBCL IkBa-CBG/CBR reporter, luminescence ratio, 4 h; Potency, µM (highest dose often 46.1 µM), for inactives: top-dose activity change, negative = inhibition, most hits filed as inhibitors; 340,000 tested, 0.05% active; active = well fitted inhibition curve with a large enough effect in the signal ratio, with a control signal flat, not every such curve was filed as active; inconclusive = small, poorly fitted or top-dose-only effect, or effect the other way, or a change in a side signal; the % refers to the signal ratio;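 also: plate controls were basal doxycycline-induced cells for no effect and cells given 10 µM MG132 for full effect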
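Compounds up to 46 uM were incubated four hours with TMD8 cells whose green CBG68 luciferase is fused to IkappaBalpha; red CBR luminescence normalised the signal, and concentration-effect curves were fitted to fusion, red and ratio data.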
Tb PFK block = T. brucei PFK enzyme inhibition. T. brucei PFK, ADP-Glo luminescence. 330,000 tested, 0.17% active. Potency, µM (titrated, usually from 57.5 µM), without a hit: top-dose activity, negative = inhibition, usual class: inhibitors. AID 485367;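 also: 0% = uninhibited 1x PFK enzyme wells and -100% = no-enzyme wells; nearly all actives have a fitted effect of over 60% in size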
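ADP-Glo luminescence quantified ADP after 45 min at room temperature, with 1.25 nM T. brucei PFK, 0.1 mM ATP and 0.5 mM fructose-6-phosphate in pH 8.0 TEA buffer. qHTS titrations up to 57 µM; curves classified by quality.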
Rango complex inh = Rango-importin beta binding inhibition. Q14974. AID 540263. Potency, µM (top dose mostly 92.2 µM), for inactives: top-dose inhibition of complex formation. Rango CFP/YFP FRET sensor + importin beta, 45 min. 340,000 tested, 0.031% active; calls by dose curve;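 also: 0% = DMSO wells and 100% = buffer wells lacking importin beta; nearly all actives have a fitted effect of over 15% in size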
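FRET biosensor (snurportin 1 IBB flanked by EYFP and cerulean), 50 nM, with compound 5 min, then 0.125 microM importin beta in PBS, 1 mM DTT, 0.02% Tween-20, 0.1% BSA. CFP/YFP ratio read after 45 min at room temperature; pre-read flags interference.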
* marks the source's active call; other numbers are inactive results; ? = inconclusive; . = no result given; [ ] = dose if it differs, or a comment. Unless noted, calls follow the shape of the dose curve; as a rule, active = well fitted curve in the direction sought with a large enough effect; inconclusive = small, poorly fitted or top-dose-only effect, or another doubt; inactive = no such curve, though single readings can be large; an effect the other way counts as inactive or inconclusive. Potency is read from the fitted curve at half-maximal effect.

Field names: A = Rango dissoc inh; B = KinaseGlo FLuc; C = Lamin A splicing; D = BCR signal inh; E = Tb PFK block; F = Rango complex inh
COc1cc(OC)cc(-c2sc3ccc(OC)cc3c2C#CC2(N)CCCCC2)c1
  A: ?	B: .	C: .	D: -5%	E: 0%	F: ?

CCCSc1nc(=O)n2cc(C)ccc2n1
  A: -16%	B: 2%	C: -2%	D: ?	E: -5%	F: -2%

CC1(C)c2[nH]c3ccccc3c2C[C@H]2C(=O)N(Cc3ccccc3)C(=O)N21
  A: -22%	B: .	C: .	D: .	E: .	F: 2%

CC1(C)c2[nH]c3ccccc3c2C[C@@H]2C(=O)N(Cc3ccccc3)C(=O)N21
  A: 21µM*	B: .	C: .	D: .	E: .	F: ?

COc1cc2c(cc1OC)C1=C(C#N)CCC(=NC(=O)c3ccc(Cl)cc3)N1CC2
  A: -19%	B: 1%	C: ?	D: -22%	E: 1%	F: 7%

Cc1ccc(-c2cc3nc(-c4ccccc4)cc(N)n3n2)cc1
  A: -1%	B: -4%	C: -2%	D: ?	E: -3%	F: 1%

Cc1cc(N)n2nc(-c3ccccc3)cc2n1
  A: -12%	B: 13µM*	C: -19%	D: ?	E: -15%	F: -2%

CCC(C)(C)NC(=O)C(c1ccccc1)N(Cc1cccs1)C(=O)Cn1nnc2ccccc21 (stereo not drawn)
  A: 1%	B: .	C: .	D: .	E: .	F: -1%

O=C(CS(=O)(=O)c1c[nH]c2ccccc12)N1CCCc2ccccc21
  A: 0%	B: 2%	C: ?	D: ?	E: -7%	F: -5%

Cc1ccc(-c2nc(N/N=C/c3cccc([N+](=O)[O-])c3)c3ccccc3n2)cc1
  A: -10%	B: -5%	C: 5%	D: 9%	E: 1%	F: ?

Cc1ccc(-c2nc(N/N=C/c3cccnc3)c3ccccc3n2)cc1
  A: -10%	B: 7.9µM*	C: ?	D: ?	E: -3%	F: 5%

Cc1ccc(NC(=O)C2CCN(S(=O)(=O)c3ccc4c(c3)C(C)(C)C(=O)N4C)CC2)c(C)c1
  A: 5%	B: .	C: .	D: 20%	E: -5%	F: 0%

CCOC(=O)c1cnc(Nc2nc3ccccc3o2)nc1C
  A: 0%	B: 2µM*	C: 6%	D: 23%	E: 8%	F: 6%

Cc1ccc(S(=O)(=O)Cc2c(C)noc2C)cc1
  A: 13%	B: -1%	C: 1%	D: -1%	E: 6%	F: -4%

COc1ccc(-c2nn3c(C4CCCCC4)nnc3s2)cc1OC
  A: 4%	B: 4%	C: -17%	D: 14µM*	E: -26%	F: 1%

COc1cc(-c2nn3c(C4CCCCC4)nnc3s2)cc(OC)c1OC
  A: 5%	B: -3%	C: -22%	D: ?	E: 4%	F: 9%

C[C@@H]1NC(=O)/C(=C\c2ccccc2Cl)NC1=O
  A: -2%	B: .	C: .	D: 1%	E: 4%	F: 0%

Cc1cc(C2=NNC(=NC3CCCCC3)SC2)c(C)n1-c1c(C)n(C)n(-c2ccccc2)c1=O
  A: -11%	B: -8%	C: ?	D: 8%	E: 0%	F: -1%

c1cc2c(cc1C1=NNC(=NC3CC3)SC1)OCCO2
  A: -10%	B: 2.2µM*	C: ?	D: ?	E: ?	F: 1%

Cc1cc(C2=NNC(=NC3CC3)SC2)c(C)n1-c1ccccc1F
  A: 2%	B: 11µM*	C: ?	D: -1%	E: -3%	F: 5%

COc1cc(OC)c(NC2c3ccccc3C(=O)N2c2cc(C)ccn2)cc1Cl (stereo not drawn)
  A: 10%	B: 4%	C: -2%	D: -4%	E: 3%	F: -2%

Cc1onc(-c2ccccc2)c1-c1nc2ccccc2c(=O)o1
  A: -1%	B: -2%	C: 7%	D: ?	E: -2%	F: 0%

Cc1onc(-c2ccccc2)c1-c1nc2cc(Cl)ccc2c(=O)o1
  A: 9%	B: .	C: .	D: 13µM*	E: 4%	F: 3%

COC(=O)/C=C1\N/C(=N\c2nc(C)cc(C)n2)N(c2ccc(C)c(C)c2)C1=O
  A: 5%	B: 0%	C: ?	D: -8%	E: -9%	F: 0%

CCc1ccc(C2C(C#N)=C(N)SC(N)=C2C#N)s1
  A: 10µM*	B: -1%	C: 14%	D: ?	E: ?	F: ?

O=C(NC(C(=O)N/N=C/c1cc([N+](=O)[O-])ccc1O)c1n[nH]c(=O)c2ccccc12)c1ccccc1 (stereo not drawn)
  A: 16µM*	B: .	C: .	D: 0%	E: 1%	F: ?

CCNC(=O)Nn1c(-c2ccccc2)nc2ccccc2c1=O
  A: -12%	B: -1%	C: 5%	D: -3%	E: -11%	F: -4%

COC(=O)c1c(NC(=O)C(C)C)sc2c1CCN(Cc1ccccc1)C2
  A: -24%	B: .	C: .	D: 7%	E: -2%	F: ?

CCC(=O)Nc1sc2c(c1C(=O)OC)CCN(Cc1ccccc1)C2
  A: 41µM*	B: .	C: .	D: 6%	E: -5%	F: ?

Cc1ccc(N2C(=O)c3ccccc3C2O)nc1 (stereo not drawn)
  A: .	B: 4.5µM*	C: -5%	D: ?	E: ?	F: .

Reformatted: results already given
> O=C(NC(C(=O)N/N=C/c1cc([N+](=O)[O-])ccc1O)c1n[nH]c(=O)c2ccccc12)c1ccccc1 (stereo not drawn)
  Rango dissoc inh: 16µM* | KinaseGlo FLuc: . | Lamin A splicing: . | BCR signal inh: 0% | Tb PFK block: 1% | Rango complex inh: ?

> Cc1cc(C2=NNC(=NC3CC3)SC2)c(C)n1-c1ccccc1F
  Rango dissoc inh: 2% | KinaseGlo FLuc: 11µM* | Lamin A splicing: ? | BCR signal inh: -1% | Tb PFK block: -3% | Rango complex inh: 5%

Next part
Field names: A = Rango dissoc inh; B = KinaseGlo FLuc; C = Lamin A splicing; D = BCR signal inh; E = Tb PFK block; F = Rango complex inh
Cc1ccc(N2C(=O)c3ccccc3C2Nc2ccccc2F)nc1 (stereo not drawn)
  A: -5%	B: -5%	C: 1%	D: 3%	E: 2%	F: -4%

CCCCC(CC)CN=C(N)NC(N)=NCCCCCCN=C(N)NC(N)=NCC(CC)CCCC (stereo not drawn)
  A: ?	B: -10%	C: .	D: ?	E: ?	F: 58µM*

CCCCC(CC)CO (stereo not drawn)
  A: -3%	B: .	C: .	D: 4%	E: 4%	F: 3%

O=C(N/N=C/c1ccccc1Cl)c1n[nH]c2c1CCCC2
  A: 12%	B: 3.2µM*	C: -1%	D: ?	E: -5%	F: 8%

O=C(CS(=O)(=O)c1ccccc1)c1ccc2c(c1)OCCO2
  A: 3%	B: 10µM*	C: -12%	D: -16%	E: -8%	F: 0%

O=C(O)CCC(=O)c1ccc2c(c1)OCCO2
  A: 7%	B: -1%	C: 6%	D: -3%	E: 0%	F: 0%

CC(=O)Nc1nc2ccc(C(=O)NCCOC(=O)C3CCCCC3)cc2s1
  A: -24%	B: -7%	C: -2%[46 µM]	D: -1%	E: 1%	F: 5%

COc1ccc(C(CNC(=O)c2cccc(N(C)C)c2)N2CCCC2)cc1 (stereo not drawn)
  A: -1%	B: 1%	C: -4%	D: 0%	E: 1%	F: -3%

CCC1CCc2sc(C(=O)NCC(c3ccc(OC)cc3)N3CCCC3)cc2C1 (stereo not drawn)
  A: 30%	B: .	C: .	D: 6%	E: 0%	F: 58µM*

COc1ccc(C(CNC(=O)c2oc3cc(Br)ccc3c2C)N2CCCCC2)cc1 (stereo not drawn)
  A: 11%	B: .	C: .	D: 0%	E: 2%	F: -1%

COc1ccc(C(CNC(=O)c2oc3ccc(Br)cc3c2C)N2CCCCC2)cc1 (stereo not drawn)
  A: 1.5µM*	B: 3%	C: -16%[46 µM]	D: -21%	E: -4%	F: -2%

Cc1cccc(N(CC(=O)Nc2c(C)n(C)n(-c3ccccc3)c2=O)S(C)(=O)=O)c1
  A: 13%	B: 2%	C: 0%	D: 1%	E: -2%	F: 1%

N/C(=N\OC(=O)c1ccc(F)cc1)c1nonc1N
  A: 2%	B: 11µM*	C: 6%	D: 3%	E: -7%	F: -3%

Cc1ccc(C(=O)O/N=C(\N)c2nonc2N)cc1
  A: 6%	B: 11µM*	C: -11%	D: -6%	E: -21%	F: -1%

Cc1ccc(/C=C/C(=O)c2nc3ccccc3[nH]2)cc1
  A: -20%	B: -22%	C: 3%	D: 13µM*	E: -4%	F: 2%

Taken from above:
In Rango dissoc inh, CCCCC(CC)CO (stereo not drawn) shows -3%
In KinaseGlo FLuc, O=C(O)CCC(=O)c1ccc2c(c1)OCCO2 shows -1%
In Tb PFK block, COc1ccc(C(CNC(=O)c2oc3ccc(Br)cc3c2C)N2CCCCC2)cc1 (stereo not drawn) shows -4%

Screens from PubChem BioAssay.
